# US20060083754A1, “Pharmaceutical combinations comprising corticoids and immunosuppressants for treating corticoid- and/or calcineurin inhibitors-resistant diseases” (priority 2003, published 2006)
# Values joined by “and” are separate entries in the source; they are usually repeats but may differ in a detail not shown here. Equal values may be shown once.
# Tested on: human peripheral blood mononuclear cells (PBMC)
# Assay: T-cell proliferation assay (BrdU ELISA), PBMC stimulated with anti-CD3 mAb + anti-CD28 mAb
# Format: cell-based
smiles,measurement,value
"C[C@@H]1C[C@H]2[C@@H]3CCC4=CC(=O)C=C[C@]4(C)[C@@]3(F)[C@@H](O)C[C@]2(C)[C@@]1(O)C(=O)CO [DEX, dexamethasone]",OD,0.885 and 0.687 and 0.643 and 0.866
